# Columns and labels:
# Amino acid sequences for entries named in this document (tags omitted).
# UniProt Q06278, whole entry: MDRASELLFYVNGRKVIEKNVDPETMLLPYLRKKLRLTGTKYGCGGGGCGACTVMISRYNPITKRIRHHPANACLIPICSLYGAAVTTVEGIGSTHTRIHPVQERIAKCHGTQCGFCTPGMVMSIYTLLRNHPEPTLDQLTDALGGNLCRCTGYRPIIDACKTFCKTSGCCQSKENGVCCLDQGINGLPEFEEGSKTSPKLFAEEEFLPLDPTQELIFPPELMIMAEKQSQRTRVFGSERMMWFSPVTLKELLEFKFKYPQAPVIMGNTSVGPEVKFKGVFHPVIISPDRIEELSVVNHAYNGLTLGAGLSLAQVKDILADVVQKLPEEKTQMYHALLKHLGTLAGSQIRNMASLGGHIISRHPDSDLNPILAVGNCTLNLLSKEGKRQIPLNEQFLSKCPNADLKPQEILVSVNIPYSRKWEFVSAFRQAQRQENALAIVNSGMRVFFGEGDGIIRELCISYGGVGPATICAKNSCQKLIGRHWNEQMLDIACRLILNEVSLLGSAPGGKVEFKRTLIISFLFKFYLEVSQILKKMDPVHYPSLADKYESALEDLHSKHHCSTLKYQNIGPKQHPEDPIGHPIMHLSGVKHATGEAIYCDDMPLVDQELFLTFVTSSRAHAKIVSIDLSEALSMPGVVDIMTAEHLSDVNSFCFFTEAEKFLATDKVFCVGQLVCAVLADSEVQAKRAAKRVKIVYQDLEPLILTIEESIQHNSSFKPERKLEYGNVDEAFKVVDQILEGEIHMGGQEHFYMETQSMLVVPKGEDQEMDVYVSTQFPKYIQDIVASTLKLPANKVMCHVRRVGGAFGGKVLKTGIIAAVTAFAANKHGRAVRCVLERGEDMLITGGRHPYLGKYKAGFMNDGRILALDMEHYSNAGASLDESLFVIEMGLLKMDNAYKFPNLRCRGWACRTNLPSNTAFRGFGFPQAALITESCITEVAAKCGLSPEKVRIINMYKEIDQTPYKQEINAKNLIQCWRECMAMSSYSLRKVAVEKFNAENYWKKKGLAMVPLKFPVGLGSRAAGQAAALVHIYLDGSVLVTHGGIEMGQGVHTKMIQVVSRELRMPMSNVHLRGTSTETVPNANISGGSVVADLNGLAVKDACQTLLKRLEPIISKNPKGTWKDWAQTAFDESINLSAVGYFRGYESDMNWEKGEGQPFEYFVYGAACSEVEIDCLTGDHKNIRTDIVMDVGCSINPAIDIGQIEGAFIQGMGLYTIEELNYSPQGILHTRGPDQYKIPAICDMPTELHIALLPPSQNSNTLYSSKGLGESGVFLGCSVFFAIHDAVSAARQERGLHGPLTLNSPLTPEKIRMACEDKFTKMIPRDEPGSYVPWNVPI
# [1] = test system: WNT signaling
# [2] = target: aldehyde oxidase (Homo sapiens, UniProt Q06278)
SMILES,IC50 [1] [µM],CLint scaled [2] [mL/min/kg]
COC1CN(C(=O)c2ccc3c(C(F)F)ncc(-c4ccc(-c5cnn(C)c5)cc4)c3n2)C1,2.43,
Cc1ncc(-c2ccc(-c3cnn(C)c3)cc2)c2nc(C(N)=O)ccc12,0.273,9

# Source: article PMC4904262 (ACS Medicinal Chemistry Letters, 2016)
